The values that follow come from ChEMBL document CHEMBL1133557, “Synthesis, SARs, and pharmacological characterization of 2-amino-3 or 6-fluorobicyclo[3.1.0]hexane-2,6-dicarboxylic acid derivatives as potent, selective, and orally active group II metabotropic glutamate receptor agonists” (J Med Chem, 2000).

Amino acid sequences for entries named in this document (tags omitted). A change or cut given only in a name is not applied to a line headed by its entry.
UniProt P31421: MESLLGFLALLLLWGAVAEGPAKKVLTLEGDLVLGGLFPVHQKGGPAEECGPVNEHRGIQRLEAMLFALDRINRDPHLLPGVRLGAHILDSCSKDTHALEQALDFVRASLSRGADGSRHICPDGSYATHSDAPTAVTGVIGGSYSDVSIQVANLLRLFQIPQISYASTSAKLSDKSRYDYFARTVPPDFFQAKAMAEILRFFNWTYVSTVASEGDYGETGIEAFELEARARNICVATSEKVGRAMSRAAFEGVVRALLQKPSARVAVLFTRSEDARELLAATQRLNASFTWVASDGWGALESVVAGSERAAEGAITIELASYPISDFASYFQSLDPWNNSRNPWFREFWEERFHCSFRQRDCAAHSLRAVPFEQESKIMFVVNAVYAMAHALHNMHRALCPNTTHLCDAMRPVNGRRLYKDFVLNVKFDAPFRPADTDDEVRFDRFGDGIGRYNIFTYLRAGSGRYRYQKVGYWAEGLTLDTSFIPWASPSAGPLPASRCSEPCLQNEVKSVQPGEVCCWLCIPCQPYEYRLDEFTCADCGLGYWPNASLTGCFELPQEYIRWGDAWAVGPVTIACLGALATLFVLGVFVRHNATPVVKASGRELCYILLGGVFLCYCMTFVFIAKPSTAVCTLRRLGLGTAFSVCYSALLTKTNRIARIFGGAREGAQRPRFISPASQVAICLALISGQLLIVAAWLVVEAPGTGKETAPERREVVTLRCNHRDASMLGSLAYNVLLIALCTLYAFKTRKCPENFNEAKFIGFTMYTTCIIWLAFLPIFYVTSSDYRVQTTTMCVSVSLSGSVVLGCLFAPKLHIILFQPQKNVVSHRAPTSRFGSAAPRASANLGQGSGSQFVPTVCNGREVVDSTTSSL

Each structure is given as a SMILES string.

Experiment [1] concerns the target T1, Metabotropic glutamate receptor 2 (Rattus norvegicus, UniProt P31421). Nature of the experiment: Tested for binding affinity against Metabotropic glutamate receptor 2 in CHO cells using [3H]-7 as radioligand. Format: cell-based.
The target of experiment [2] is T1, Metabotropic glutamate receptor 2. The experiment in a line: Agonist activity against Metabotropic glutamate receptor 2 expressed in CHO cells was evaluated by measuring forskolin-induced cyclic AMP formation. Format: functional, cell-based.

With `N[C@@]1(C(=O)O)CC[C@H]2[C@H](C(=O)O)[C@H]21`, affinity in experiment [1] was put at a Ki of 23.4 nM. The molecule also returned an EC50 in experiment [2] of 18.3 nM.

In general, Ki refers to a dissociation constant, usually derived from enzyme kinetics or from competition with a known ligand. Read a low Ki as tighter binding. By EC50 is commonly meant the concentration giving half of the maximal effect. A low value points to higher potency in that assay.
